From patent US8604200B2, “Diaza-spiro-{4,4}-nonane derivatives as neurokinin (NK1) antagonists” (Janssen Pharmaceutica N.V., priority 2005, dated 2013)

By UniProt entry, the sequences of proteins in these tests, tags left out.
UniProt P21452, whole entry: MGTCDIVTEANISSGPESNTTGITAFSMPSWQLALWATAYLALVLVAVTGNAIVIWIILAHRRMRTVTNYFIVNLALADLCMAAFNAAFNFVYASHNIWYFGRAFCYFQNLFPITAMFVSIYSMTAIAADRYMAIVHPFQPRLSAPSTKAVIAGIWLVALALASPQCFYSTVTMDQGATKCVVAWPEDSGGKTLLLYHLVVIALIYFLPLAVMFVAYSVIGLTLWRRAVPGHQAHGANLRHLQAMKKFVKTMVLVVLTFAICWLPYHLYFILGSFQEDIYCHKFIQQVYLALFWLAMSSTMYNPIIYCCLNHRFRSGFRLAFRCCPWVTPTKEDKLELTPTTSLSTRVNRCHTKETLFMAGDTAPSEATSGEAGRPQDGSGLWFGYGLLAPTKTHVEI
UniProt P25103, whole entry: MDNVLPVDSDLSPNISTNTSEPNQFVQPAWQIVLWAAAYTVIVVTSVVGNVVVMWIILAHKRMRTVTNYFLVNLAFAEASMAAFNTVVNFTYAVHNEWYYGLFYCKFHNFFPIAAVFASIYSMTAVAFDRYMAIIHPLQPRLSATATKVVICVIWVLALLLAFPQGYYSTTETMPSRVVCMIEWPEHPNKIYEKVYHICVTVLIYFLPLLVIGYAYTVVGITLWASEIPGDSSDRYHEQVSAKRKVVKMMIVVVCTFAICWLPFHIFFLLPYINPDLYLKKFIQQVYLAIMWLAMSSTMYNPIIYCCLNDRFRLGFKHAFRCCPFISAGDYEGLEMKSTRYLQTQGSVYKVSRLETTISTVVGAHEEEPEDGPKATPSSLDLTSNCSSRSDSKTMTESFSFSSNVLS
UniProt P29371, whole entry: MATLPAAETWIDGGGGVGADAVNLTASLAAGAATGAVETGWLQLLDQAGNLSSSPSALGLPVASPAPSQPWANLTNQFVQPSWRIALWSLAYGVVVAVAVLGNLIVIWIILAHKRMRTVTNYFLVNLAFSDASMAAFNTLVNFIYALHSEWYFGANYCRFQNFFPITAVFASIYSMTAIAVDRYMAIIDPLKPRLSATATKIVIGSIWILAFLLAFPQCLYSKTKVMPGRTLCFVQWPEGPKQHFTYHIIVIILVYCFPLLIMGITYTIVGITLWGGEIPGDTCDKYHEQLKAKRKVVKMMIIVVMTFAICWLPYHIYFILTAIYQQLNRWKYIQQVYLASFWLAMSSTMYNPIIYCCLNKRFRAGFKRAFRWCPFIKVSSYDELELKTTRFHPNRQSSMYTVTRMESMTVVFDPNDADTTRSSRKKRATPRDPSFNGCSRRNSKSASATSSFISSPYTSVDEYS

Key:
Details in all cases: antagonist response, Ca++ transient peak
[1] = target: NK2 (Homo sapiens, UniProt P21452); assay: Signal transduction (ST), intracellular Ca++ FLIPR, NK2
[2] = target: NK1 (Homo sapiens, UniProt P25103); assay: Signal transduction (ST), intracellular Ca++ FLIPR, NK1
Procedure: This test evaluates in vitro functional NK1 antagonistic activity. For the measurements of intracellular Ca^++ concentrations the cells were grown on 96-well (black wall/transparent bottom) plates from Costar for 2 days until they reached confluence. The cells were loaded with 2 μM Fluo3 in DMEM containing 0.1% BSA and 2.5 mM probenecid for 1 h at 37° C. They were washed 3× with a Krebs buffer (140 mM NaCl, 1 mM MgCl2×6H2O, 5 mM KCl, 10 mM glucose, 5 mM HEPES; 1.25 mM CaCl2; pH 7.4) containing 2.5 mM probenecid and 0.1% BSA (Ca^++-buffer). The cells were preincubated with a concentration range of antagonists for 20 min at RT and Ca^++-signals after addition of the agonists were measured in a Fluorescence Inage Plate Reader (FLIPR from Molecular Devices, Crawley, England). The peak of the Ca^++-transient was considered as the relevant signal and the mean values of corresponding wells were analysed as described below. The sigmoidal dose response curves were analysed by computerised curve-fitting, using the GraphPad Program. The EC50-value of a compound is the effective dose showing 50% of maximal effect. For mean curves the response to the agonist with the highest potency was normalised to 100%. For antagonist responses the IC50-value was calculated using non-linear regression. The last column indicates—without being limited thereto—for which use the compounds might be most suitable.

[3] = target: NK3 (Homo sapiens, UniProt P29371); assay: Signal transduction (ST), intracellular Ca++ FLIPR, NK3

NK2 pIC50 [1]: 5.2
NK1 pIC50 [2]: 6.7
NK3 pIC50 [3]: <5
SMILES: O=C(c1cc(C(F)(F)F)cc(C(F)(F)F)c1)N1CC[C@@H](N2CCC3(CCCN3C(=O)C3CC3)C2)C[C@H]1Cc1ccccc1 (stereo partly drawn)
